# In patent publication US20130213851A1, “OMEGA 3 FATTY ACID FORMULATIONS” (CENESTRA LLC., priority 2005, published 2013):
# Test system: Attention Deficit Hyperactivity Disorder (ADHD)-combined type, and Tic Disorder
# Assay: Case report: cognition, attention and tics after OMAX3 augmentation
# Format: in vivo, human
# Conditions: past use for tics, patient history
# Procedure: […] […] Past medication trials included: Strattera (atomoextine), Adderall, Adderall XR, methylphenidate, Tenex (guanfacine), and Concerta. His most recent medication treatment was with Concerta 54 mg per day.
# R's Tic Disorder was comprised of both vocal and motor tics in the form of random verbalizations or screeching sounds, as well as either a facial and neck twitch.
# The patient was treated with OMAX3, 2 capsules per day (1125 mg EPA, 275 mg DHA, 1500 mg Total Omega-3 fatty acids) for the purpose of enhancing their attention and cognitive function.
smiles,measurement,value
"Cc1nc2n(c(=O)c1CCN1CCC(c3noc4cc(F)ccc34)CC1)CCCC2 [Risperdal, risperidone]",tolerability,poor tolerability
